Assay results reported in patent publication US10562947B2, “Compositions and methods for preventing or treating diseases, conditions or processes characterized by aberrant fibroblast proliferation and extracellular matrix deposition” (MOERAE MATRIX, INC., priority 2011, dated 2020).

The chains behind the UniProt entries cited, without tags or fusion partners. Where a name states a change or a piece, a line headed by the entry shows the natural chain unless it says otherwise.
UniProt P78368: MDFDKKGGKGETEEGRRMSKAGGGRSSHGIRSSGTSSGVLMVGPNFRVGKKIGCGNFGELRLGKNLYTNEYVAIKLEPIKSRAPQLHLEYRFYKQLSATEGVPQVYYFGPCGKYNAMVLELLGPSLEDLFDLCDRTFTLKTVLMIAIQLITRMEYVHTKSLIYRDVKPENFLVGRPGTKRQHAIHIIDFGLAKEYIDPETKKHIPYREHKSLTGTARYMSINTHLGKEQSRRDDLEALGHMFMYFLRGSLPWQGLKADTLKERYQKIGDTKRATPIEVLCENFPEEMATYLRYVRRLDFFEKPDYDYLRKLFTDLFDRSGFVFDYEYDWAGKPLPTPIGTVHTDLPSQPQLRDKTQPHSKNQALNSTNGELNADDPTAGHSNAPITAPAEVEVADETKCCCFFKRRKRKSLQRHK
UniProt Q9H2X6: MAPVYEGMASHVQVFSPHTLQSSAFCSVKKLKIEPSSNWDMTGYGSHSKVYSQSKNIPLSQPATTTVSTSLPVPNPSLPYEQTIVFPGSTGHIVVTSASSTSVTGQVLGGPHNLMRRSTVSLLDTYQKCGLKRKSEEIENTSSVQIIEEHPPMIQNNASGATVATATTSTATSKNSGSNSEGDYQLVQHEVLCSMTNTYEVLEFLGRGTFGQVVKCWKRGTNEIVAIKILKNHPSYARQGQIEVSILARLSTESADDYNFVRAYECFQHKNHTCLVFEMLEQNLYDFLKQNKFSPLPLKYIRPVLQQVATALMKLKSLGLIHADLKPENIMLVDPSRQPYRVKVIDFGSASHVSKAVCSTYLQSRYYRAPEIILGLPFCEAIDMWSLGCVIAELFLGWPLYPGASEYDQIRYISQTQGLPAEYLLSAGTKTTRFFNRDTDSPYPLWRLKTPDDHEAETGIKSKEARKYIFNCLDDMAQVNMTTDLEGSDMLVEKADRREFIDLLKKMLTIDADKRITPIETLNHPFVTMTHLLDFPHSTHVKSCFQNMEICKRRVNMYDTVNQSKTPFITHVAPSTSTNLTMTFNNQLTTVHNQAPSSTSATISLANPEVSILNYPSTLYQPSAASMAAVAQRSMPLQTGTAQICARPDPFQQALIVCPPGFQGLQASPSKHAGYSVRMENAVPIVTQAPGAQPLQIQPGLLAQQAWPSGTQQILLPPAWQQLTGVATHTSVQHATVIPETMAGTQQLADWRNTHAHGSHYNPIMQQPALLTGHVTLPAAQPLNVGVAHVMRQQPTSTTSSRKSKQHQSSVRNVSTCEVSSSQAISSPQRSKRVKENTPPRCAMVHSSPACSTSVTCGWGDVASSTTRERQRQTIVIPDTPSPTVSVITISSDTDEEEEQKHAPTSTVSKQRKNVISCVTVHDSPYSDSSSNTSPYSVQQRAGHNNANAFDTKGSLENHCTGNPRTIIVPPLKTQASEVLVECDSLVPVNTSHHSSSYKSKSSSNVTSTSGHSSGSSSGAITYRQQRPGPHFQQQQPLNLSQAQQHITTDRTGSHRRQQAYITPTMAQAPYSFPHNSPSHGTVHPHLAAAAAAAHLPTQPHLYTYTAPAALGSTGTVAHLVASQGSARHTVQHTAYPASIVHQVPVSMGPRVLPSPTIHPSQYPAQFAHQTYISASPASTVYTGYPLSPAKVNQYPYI
UniProt P53667: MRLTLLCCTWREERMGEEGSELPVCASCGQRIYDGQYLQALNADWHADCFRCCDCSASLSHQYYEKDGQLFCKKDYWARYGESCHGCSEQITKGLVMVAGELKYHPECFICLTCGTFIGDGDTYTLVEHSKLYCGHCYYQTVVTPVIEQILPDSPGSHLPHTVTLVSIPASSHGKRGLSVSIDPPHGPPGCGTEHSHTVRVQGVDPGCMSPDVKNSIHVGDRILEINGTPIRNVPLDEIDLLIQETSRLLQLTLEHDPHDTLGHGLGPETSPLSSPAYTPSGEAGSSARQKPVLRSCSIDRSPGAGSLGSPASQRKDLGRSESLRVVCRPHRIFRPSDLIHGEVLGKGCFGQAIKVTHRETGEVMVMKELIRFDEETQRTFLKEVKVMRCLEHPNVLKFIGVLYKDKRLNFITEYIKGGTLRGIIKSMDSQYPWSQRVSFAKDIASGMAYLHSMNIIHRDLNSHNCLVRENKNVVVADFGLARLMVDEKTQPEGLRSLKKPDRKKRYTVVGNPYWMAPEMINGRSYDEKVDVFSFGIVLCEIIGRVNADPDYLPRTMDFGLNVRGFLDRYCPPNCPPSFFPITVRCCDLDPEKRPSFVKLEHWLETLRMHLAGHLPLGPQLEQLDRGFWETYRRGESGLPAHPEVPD
UniProt P06239: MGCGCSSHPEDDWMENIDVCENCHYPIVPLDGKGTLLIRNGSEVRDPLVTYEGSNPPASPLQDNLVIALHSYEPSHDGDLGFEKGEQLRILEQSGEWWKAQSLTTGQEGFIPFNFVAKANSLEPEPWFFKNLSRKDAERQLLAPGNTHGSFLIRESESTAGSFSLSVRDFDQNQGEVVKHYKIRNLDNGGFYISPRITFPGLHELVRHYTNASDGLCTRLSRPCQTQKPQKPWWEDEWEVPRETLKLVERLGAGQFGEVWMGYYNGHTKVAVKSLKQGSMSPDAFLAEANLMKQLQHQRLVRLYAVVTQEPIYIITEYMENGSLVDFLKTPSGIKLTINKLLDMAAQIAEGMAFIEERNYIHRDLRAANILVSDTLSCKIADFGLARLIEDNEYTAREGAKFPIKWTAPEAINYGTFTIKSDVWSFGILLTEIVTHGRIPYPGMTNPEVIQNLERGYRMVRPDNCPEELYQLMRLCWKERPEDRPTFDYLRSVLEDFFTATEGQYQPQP
UniProt Q9Y5S2: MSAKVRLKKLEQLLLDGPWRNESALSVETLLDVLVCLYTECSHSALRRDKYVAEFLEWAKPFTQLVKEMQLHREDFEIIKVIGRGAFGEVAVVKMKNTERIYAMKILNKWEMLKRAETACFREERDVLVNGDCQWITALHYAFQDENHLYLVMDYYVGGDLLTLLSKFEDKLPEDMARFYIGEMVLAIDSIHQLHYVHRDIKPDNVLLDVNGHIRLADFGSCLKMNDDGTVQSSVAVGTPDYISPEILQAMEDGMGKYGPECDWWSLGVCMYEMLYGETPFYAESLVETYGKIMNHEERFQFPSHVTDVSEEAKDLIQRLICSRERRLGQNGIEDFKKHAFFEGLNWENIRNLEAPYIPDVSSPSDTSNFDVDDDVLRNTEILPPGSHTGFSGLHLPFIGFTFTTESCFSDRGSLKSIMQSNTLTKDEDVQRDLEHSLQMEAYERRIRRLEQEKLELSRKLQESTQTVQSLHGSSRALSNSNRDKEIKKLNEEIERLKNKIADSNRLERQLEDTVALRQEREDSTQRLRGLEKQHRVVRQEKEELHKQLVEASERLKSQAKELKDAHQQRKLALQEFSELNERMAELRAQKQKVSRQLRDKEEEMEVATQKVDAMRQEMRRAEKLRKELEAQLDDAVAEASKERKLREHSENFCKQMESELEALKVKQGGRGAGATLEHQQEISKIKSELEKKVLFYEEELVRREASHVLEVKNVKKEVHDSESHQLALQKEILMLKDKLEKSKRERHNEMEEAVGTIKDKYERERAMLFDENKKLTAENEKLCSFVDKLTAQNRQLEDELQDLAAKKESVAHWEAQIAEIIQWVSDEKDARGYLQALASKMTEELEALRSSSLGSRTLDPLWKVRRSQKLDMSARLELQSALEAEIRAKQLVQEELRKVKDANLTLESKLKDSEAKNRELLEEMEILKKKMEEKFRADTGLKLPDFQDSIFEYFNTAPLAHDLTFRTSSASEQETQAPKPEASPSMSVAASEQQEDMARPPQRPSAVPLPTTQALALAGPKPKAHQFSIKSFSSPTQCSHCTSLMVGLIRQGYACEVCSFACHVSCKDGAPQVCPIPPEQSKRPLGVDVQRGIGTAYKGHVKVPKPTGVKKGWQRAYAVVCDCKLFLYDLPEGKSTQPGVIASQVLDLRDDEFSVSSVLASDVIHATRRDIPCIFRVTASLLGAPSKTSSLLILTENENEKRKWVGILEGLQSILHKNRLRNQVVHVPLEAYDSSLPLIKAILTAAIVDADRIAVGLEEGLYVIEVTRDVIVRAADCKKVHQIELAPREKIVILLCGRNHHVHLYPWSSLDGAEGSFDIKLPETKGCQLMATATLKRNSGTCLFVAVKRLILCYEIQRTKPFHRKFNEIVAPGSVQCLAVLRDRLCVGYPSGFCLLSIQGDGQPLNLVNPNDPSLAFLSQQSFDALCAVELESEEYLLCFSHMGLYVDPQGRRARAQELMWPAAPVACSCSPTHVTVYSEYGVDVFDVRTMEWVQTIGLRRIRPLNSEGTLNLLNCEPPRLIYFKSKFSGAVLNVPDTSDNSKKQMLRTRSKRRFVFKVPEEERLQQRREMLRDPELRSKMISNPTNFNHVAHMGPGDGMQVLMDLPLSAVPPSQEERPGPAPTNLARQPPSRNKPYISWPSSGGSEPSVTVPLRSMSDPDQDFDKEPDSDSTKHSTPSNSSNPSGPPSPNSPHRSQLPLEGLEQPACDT
UniProt Q9Y243: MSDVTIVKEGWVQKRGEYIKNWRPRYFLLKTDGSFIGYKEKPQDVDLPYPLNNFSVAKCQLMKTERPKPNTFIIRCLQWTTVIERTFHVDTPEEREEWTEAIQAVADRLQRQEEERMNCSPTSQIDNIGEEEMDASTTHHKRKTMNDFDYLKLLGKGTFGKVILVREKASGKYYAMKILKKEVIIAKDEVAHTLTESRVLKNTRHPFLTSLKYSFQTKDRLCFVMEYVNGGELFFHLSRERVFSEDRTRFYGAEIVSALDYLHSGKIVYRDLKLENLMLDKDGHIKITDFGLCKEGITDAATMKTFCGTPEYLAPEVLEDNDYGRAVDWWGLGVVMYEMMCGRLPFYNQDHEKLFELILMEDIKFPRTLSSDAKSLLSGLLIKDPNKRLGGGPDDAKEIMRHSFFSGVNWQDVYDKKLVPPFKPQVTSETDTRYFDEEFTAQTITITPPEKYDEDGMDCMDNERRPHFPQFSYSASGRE
UniProt Q13464: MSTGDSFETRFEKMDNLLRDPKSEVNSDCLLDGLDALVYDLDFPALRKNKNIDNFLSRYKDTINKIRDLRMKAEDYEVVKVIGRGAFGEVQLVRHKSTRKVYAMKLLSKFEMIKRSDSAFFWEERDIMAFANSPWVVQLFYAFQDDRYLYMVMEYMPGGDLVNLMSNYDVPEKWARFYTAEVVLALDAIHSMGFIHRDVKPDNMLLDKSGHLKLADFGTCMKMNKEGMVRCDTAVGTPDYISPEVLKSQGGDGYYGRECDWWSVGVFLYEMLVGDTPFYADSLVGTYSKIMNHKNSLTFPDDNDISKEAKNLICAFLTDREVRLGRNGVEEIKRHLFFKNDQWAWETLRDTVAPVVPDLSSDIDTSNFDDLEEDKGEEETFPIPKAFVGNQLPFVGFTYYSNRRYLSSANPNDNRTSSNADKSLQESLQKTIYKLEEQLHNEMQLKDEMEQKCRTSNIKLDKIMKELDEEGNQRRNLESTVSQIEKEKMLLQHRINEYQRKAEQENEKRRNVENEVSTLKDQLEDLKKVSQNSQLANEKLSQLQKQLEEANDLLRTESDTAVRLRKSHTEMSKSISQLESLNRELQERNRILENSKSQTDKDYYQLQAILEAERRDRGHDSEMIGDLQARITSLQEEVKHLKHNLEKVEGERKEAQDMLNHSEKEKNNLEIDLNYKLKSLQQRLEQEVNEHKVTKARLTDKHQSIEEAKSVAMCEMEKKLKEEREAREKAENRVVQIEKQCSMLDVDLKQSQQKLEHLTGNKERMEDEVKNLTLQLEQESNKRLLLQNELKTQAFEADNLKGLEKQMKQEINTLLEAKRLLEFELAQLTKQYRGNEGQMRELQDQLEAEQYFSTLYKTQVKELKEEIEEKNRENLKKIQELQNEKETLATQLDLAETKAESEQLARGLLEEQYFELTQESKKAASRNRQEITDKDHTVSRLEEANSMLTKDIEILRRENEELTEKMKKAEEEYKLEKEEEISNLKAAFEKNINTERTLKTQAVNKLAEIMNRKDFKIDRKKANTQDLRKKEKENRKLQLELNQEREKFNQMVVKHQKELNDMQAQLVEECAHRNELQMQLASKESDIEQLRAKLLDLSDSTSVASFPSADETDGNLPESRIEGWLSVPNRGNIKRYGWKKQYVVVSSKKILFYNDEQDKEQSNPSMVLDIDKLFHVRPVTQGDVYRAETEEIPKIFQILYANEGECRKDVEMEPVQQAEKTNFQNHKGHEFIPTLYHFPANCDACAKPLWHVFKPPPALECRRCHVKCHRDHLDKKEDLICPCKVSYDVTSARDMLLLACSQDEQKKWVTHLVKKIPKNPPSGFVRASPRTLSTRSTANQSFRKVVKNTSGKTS

Key:
Assay in all cases: Kinase Profiling Assay
Format in all cases: biochemical
Settings in all cases: 100 μM peptide
Abl(Y253F)(h) = Abl(Y253F)(h) (Homo sapiens, UniProt P00519, Y253F)
Summary of the method: (§1)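 First, MK2 inhibitor peptides were applied to a panel of 266 human kinases; then each kinase's activity was measured in duplicate to assess off-target inhibition.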

Aurora-A(h) = biological target: T1, Aurora-A(h) (Homo sapiens, UniProt O14965)
T1 sequence (O14965 1-403): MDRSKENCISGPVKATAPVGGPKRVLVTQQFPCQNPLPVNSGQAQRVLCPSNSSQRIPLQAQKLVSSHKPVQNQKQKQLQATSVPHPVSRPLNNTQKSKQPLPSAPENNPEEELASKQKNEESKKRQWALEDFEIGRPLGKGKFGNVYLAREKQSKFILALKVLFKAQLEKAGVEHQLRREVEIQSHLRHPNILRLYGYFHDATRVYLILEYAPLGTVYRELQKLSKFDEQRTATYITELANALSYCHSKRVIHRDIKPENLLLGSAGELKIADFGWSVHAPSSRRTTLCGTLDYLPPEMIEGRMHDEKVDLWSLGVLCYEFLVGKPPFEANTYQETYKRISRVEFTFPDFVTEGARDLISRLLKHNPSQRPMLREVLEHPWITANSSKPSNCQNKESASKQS
Summary of the method: as §1

CDK1/cyclinB(h) = CDK1/cyclinB(h) (Homo sapiens, UniProt P06493)
Summary of the method: as §1

CDK3/cyclinE(h) = CDK3/cyclinE(h) (Homo sapiens, UniProt Q00526)
Summary of the method: as §1

CK1γ2(h) = CK1γ2(h) (Homo sapiens, UniProt P78368)
Summary of the method: as §1

HIPK2(h) = biological target: T2, HIPK2(h) (Homo sapiens, UniProt Q9H2X6)
T2 construct: purchased Millipore
Summary of the method: as §1

LIMK1(h) = LIMK1(h) (Homo sapiens, UniProt P53667)
Summary of the method: as §1

Lck(h) = Lck(h) (Homo sapiens, UniProt P06239)
Summary of the method: as §1

MINK(h) = MINK(h) (Homo sapiens, UniProt Q8N4C8)
Summary of the method: as §1

MRCKβ(h) = MRCKβ(h) (Homo sapiens, UniProt Q9Y5S2)
Summary of the method: as §1

MST2(h) = biological target: T3, MST2(h) (Homo sapiens, UniProt Q13188)
T3 sequence (Q13188 1-491): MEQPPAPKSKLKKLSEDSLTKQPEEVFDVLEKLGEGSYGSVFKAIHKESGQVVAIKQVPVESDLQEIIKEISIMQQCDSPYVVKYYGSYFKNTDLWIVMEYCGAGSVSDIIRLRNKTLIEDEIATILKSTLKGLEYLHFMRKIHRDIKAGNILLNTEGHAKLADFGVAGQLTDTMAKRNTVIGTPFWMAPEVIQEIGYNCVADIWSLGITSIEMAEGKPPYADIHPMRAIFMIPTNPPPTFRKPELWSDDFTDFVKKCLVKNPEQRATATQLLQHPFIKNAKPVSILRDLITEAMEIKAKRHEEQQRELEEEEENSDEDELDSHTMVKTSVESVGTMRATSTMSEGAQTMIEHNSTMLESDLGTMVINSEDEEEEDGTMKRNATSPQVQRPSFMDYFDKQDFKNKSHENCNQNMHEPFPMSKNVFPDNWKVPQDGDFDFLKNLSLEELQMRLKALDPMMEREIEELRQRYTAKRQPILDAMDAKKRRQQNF
Summary of the method: as §1

PKBγ(h) = PKBγ(h) (Homo sapiens, UniProt Q9Y243)
Summary of the method: as §1

ROCK-I(h) = biological target: T4, ROCK-I(h) (Homo sapiens, UniProt Q13464)
T4 construct: purchased Millipore (IC50 Profiler Express service)
Summary of the method: as §1

TAO3(h) = biological target: T5, TAO3(h) (Homo sapiens, UniProt Q9H2K8)
T5 sequence (Q9H2K8 1-898): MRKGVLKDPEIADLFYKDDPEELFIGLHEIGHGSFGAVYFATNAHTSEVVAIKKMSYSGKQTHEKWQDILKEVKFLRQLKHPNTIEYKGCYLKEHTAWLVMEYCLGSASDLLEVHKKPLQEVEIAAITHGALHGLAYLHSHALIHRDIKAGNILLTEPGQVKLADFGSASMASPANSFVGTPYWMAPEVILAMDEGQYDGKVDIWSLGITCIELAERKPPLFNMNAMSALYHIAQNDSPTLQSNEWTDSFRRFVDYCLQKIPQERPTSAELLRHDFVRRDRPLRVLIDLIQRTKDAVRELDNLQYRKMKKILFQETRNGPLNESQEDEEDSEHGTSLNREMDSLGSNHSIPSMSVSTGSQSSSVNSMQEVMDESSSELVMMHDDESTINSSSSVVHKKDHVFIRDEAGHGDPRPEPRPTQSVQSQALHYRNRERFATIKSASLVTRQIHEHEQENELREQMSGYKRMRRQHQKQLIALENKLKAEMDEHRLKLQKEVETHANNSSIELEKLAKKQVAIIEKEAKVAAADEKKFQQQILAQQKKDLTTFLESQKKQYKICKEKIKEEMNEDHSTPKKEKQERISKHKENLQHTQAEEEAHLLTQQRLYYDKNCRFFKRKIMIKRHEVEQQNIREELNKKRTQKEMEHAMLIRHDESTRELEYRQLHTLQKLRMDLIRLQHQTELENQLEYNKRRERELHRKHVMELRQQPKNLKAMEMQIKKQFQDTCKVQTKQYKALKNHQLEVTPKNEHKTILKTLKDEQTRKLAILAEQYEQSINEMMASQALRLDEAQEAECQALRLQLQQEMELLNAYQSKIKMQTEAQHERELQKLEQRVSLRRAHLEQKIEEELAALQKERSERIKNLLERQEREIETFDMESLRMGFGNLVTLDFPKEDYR
Summary of the method: as §1

VRK2(h) = VRK2(h) (Homo sapiens, UniProt Q86Y07)
Summary of the method: as §1

cKit(V654A)(h) = cKit(V654A)(h) (Homo sapiens, UniProt P10721, V654A)
Summary of the method: as §1

eEF-2K(h) = eEF-2K(h) (Homo sapiens, UniProt O00418)
Summary of the method: as §1

For “YARAAARQARAKALNRQLGVA (Mammalian) [MMI-0200]”, the “Abl(Y253F)(h) % activity” value (Abl(Y253F)(h)) was 102%, the “Aurora-A(h) % activity” value (Aurora-A(h)) was 107% and the “CDK1/cyclinB(h) % activity” value (CDK1/cyclinB(h)) was 115%. For the same sequence, the “CDK3/cyclinE(h) % activity” value (CDK3/cyclinE(h)) was 104%, the “CK1γ2(h) % activity” value (CK1γ2(h)) was 104% and the “HIPK2(h) % activity” value (HIPK2(h)) was 102%. For the same sequence, the “LIMK1(h) % activity” value (LIMK1(h)) was 109%, the “Lck(h) % activity” value (Lck(h)) was 113% and the “MINK(h) % activity” value (MINK(h)) was 103%. For the same sequence, the “MRCKβ(h) % activity” value (MRCKβ(h)) was 102%, the “MST2(h) % activity” value (MST2(h)) was 104% and the “PKBγ(h) % activity” value (PKBγ(h)) was 103%. For the same sequence, the “ROCK-I(h) % activity” value (ROCK-I(h)) was 117%, the “TAO3(h) % activity” value (TAO3(h)) was 102% and the “VRK2(h) % activity” value (VRK2(h)) was 109%. The “cKit(V654A)(h) % activity” value (cKit(V654A)(h)) was 113% and the “eEF-2K(h) % activity” value (eEF-2K(h)) was 136%.
